# Measured affinities in a library of Ab-91 heavy chain variants

Target peptide (SARS-CoV-2 spike, HR2 region): PDVDLGDISGINAS

Each scFv is VL, three GGGGS repeats, VH, as in the parent Ab-91, and differs from it in the CDRs of the heavy chain only.
VL: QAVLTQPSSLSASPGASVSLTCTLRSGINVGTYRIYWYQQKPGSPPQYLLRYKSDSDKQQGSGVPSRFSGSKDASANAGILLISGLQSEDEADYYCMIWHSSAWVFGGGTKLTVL
VH: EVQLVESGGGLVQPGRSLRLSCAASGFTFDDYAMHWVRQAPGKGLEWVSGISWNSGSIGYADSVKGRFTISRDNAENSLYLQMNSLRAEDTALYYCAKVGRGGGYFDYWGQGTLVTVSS

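Library AAYL51 holds single substitutions and randomly drawn double and triple substitutions in the CDRs. Affinity was read by AlphaSeq, a pooled yeast mating assay with surface-displayed partners. Binding brings cells together so that they mate, and sequencing counts the barcode pairs among the diploids. A regression on co-assayed BCL2-family reference pairs converts the normalised counts of each replicate to an apparent Kd. The assay was run in three technical replicates.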

Positions count from residue 1 of the parent VH; F29W puts W in place of F. Affinities are written as log10 Kd with Kd in nM; a lower number is a better binder. Replicates are averaged; those with no signal do not enter the mean. "nd" marks a missing value. The strain was present, yet no cells mated with the target were sequenced in any replicate, which points to weak or no binding. In this assay the parent's reference entry averaged 1.86; its copy inside this library read 0.88. Background: pairings of library AAYL51 with three empty control strains gave a value in 21% of cases (median 4.54, 5th percentile 3.26). Values in that range, when seen in few replicates, are hard to tell from nonspecific mating.

4.86 (2 of 3 replicates) for F29W I51M G103P.
1.29 (3 of 3 replicates) for D30A I58K Y60I.
5.28 (1 of 3 replicates) for H35E N54E S57F.
nd (0 of 3 replicates) for M34P G56C G104T.
1.77 (3 of 3 replicates) for D31E R101P.
nd (0 of 3 replicates) for I51Q S57M Y60M.
nd (0 of 3 replicates) for F27T G56I I58V.
4.80 (2 of 3 replicates) for W53N N54E R101L.
nd (0 of 3 replicates) for T28G M34E S55M.
5.35 (2 of 3 replicates) for F29H A33T G50R.
nd (0 of 3 replicates) for F29V I51G Y105S.
2.86 (3 of 3 replicates) for S57F Y105V Y108M.
nd (0 of 3 replicates) for T28E G56T G59N.
4.69 (1 of 3 replicates) for D30H I51N F106C.
4.65 (1 of 3 replicates) for F29A W53R I58D.
1.06 (3 of 3 replicates) for D30H Y32N I58A.
2.53 (3 of 3 replicates) for T28D D62C G104L.
4.05 (1 of 3 replicates) for A33T S52R I58C.
4.84 (2 of 3 replicates) for F29I I51Y W53F.
4.67 (1 of 3 replicates) for A33K G50C Y105G.
4.22 (1 of 3 replicates) for I58Y V64A G102W.
nd (0 of 3 replicates) for D31K I58S G103T.
3.87 (1 of 3 replicates) for D30R S57K Y60L.
5.02 (2 of 3 replicates) for F27N G100S.
2.68 (3 of 3 replicates) for G56Y S57H K65N.
4.64 (1 of 3 replicates) for D31W S57C F106M.
nd (0 of 3 replicates) for H35G S57T D107L.
nd (0 of 3 replicates) for D31E M34K S55W.
5.50 (2 of 3 replicates) for A33E G100N F106G.
nd (0 of 3 replicates) for D30W S55G K65G.
nd (0 of 3 replicates) for D62M G103N.
nd (0 of 3 replicates) for N54S V64W K65C.
nd (0 of 3 replicates) for F27V T28M V99F.
4.99 (1 of 3 replicates) for T28E H35G S63C.
nd (0 of 3 replicates) for S52W S55I.
nd (0 of 3 replicates) for I51W G59F D107E.
3.95 (1 of 3 replicates) for N54R K65A G100R.
4.97 (3 of 3 replicates) for D30Q W53N Y60P.
nd (0 of 3 replicates) for G50S S63L.
5.10 (3 of 3 replicates) for W53K Y105K D107R.
4.83 (3 of 3 replicates) for F27N D30L G59V.
nd (0 of 3 replicates) for W53M G56E G103Y.
4.08 (1 of 3 replicates) for F29H V99K R101N.
4.55 (3 of 3 replicates) for T28L Y32M V64I.
4.90 (2 of 3 replicates) for Y32M I51F G56T.
nd (0 of 3 replicates) for G26D M34T Y108I.
5.14 (2 of 3 replicates) for F29T M34G G104P.
nd (0 of 3 replicates) for Y60E V99R Y108P.

Excerpt, the first 3 entries:

changes	log10 Kd (nM), mean	seen in
F29W I51M G103P	4.86	2 of 3
D30A I58K Y60I	1.29	3 of 3
H35E N54E S57F	5.28	1 of 3

Data: MIT Lincoln Laboratory AlphaSeq set, Engelhart et al. 2022, doi:10.1038/s41597-022-01779-4, as distributed in FLAb.